{
  "source": "paper PMC7955166",
  "target": "MBP-tagged CYRI-B wild-type (mouse) (UniProt Q921M7)",
  "experiment": "pull-down; MBP-tagged CYRI-B wild-type or mutants immobilised on MBP beads; purified GST-tagged Rac1 Q61L or Q61L S41A in solution; blot, two independent experiments quantified",
  "data": [
    {"substance": "GST-tagged Rac1 Q61L S41A (from UniProt P63000 1-192) (enzyme)", "values": [
      {"measurement": "percent loss of binding against Rac1 Q61L", "result": 30, "unit": "%"}
    ]}
  ]
}
